From PMC12037037 (Proceedings of the National Academy of Sciences of the …, 2025) come the findings set out here.

Amino acid sequences for entries named in this document (tags omitted). Chains listed by the source or under a name are the forms on record and can include a tag or linker.
UniProt P28223, whole entry: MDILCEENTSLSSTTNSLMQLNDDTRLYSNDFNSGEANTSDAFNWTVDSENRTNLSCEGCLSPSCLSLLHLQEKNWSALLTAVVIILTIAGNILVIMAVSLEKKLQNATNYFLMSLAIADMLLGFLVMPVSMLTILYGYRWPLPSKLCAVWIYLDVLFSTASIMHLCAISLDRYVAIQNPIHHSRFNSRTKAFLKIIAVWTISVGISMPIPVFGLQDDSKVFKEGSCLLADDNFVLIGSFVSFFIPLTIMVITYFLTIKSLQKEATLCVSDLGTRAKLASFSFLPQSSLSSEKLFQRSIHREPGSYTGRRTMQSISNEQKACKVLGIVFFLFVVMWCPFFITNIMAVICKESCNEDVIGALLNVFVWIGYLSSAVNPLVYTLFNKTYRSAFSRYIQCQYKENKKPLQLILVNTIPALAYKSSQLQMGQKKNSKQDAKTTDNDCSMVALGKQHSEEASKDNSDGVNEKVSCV
UniProt P28223, with tags, fused parts or gaps: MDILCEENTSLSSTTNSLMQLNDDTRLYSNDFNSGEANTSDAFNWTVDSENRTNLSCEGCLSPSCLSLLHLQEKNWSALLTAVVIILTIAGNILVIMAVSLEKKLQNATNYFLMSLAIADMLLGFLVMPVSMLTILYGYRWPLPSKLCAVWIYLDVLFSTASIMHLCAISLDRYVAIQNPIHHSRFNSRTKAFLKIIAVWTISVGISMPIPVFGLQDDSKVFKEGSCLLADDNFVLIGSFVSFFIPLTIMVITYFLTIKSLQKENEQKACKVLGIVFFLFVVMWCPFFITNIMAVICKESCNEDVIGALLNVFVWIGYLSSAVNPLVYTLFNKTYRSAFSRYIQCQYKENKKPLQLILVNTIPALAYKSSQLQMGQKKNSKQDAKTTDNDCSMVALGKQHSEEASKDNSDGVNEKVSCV
UniProt P28223, with tags, fused parts or gaps S242A: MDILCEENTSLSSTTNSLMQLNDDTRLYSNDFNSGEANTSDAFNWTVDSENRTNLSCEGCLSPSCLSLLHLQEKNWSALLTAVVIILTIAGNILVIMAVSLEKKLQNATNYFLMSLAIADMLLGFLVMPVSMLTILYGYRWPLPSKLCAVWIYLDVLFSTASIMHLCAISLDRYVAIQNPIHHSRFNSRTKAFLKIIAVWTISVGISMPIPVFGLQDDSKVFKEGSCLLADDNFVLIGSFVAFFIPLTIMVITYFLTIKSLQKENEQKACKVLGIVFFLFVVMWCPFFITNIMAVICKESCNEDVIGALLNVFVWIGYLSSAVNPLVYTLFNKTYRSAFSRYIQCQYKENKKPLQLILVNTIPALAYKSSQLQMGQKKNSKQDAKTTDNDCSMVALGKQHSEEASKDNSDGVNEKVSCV

Assay [1] deals with T1, 5-HT2A receptors (Gq activation) (Homo sapiens, UniProt P28223).
T1 construct: expressed in transfected cells; host or cells: HEK293T (transient)
The assay is described as follows: BRET-based assay of Gq activation. Conditions: read-out: Gq Activation: EMax. The format is cell-based.

Assay [2] has as its target wild type human 5-HT2A receptor (psychLight2, PSYLI2 cells) (Homo sapiens, UniProt P28223). The assay is described as follows: PsychLight assay, wild type. The format is cell-based. Conditions: read-out: psychLight (WT): EMax.
Assay [3] has as its target psychLight S242A^5.46 (murinized variant) (Homo sapiens, UniProt P28223, S242A). The assay is described as follows: PsychLight assay, S242A^5.46 mutant. The format is cell-based. The conditions noted are these: read-out: psychLight (S242A^5.46): EMax.
Assay [4] deals with cultured rat embryonic cortical neurons. The assay is described as follows: Neuritogenesis assay (Sholl analysis, DIV6). It is filed as cell-based.
The test system of the next assay is male C57BL/6J mice. Put plainly: Head-twitch antagonism of an LSD dose response (Transpharmation). Conditions: LSD 0.03 mg/kg IP, -JRT PreTx; mean ± SEM. It is filed as in vivo.

For the compound `CCN(CC)C(=O)[C@@H]1C=C2c3cccc4[nH]cc(c34)C[C@H]2N(C)C1` [LSD, lysergic acid diethylamide], the Emax (in general, the maximal effect, on the per cent scale that the assay sets) in assay [1] was determined as 63%; in assay [2], 44%; in assay [3], 28%. Moreover, the “Area under the curves of the Sholl plots (Figure S8D)” value in assay [4] is 1.144 ± 0.0533. The “Number of primary dendrites (Figure S8B)” value in assay [4] came out at 8.063 ± 0.3835. The “Head-twitch response over 20 min (Figure S9)” value in the assay with male C57BL/6J mice came out at 11.1 ± 1.32.
